# AlphaSeq binding of Ab-91 heavy chain variants to a spike HR2 peptide

Target: peptide PDVDLGDISGINAS, taken from heptad repeat 2 (HR2) of SARS-CoV-2 spike.

Each scFv is VL, three GGGGS repeats, VH, as in the parent Ab-91, and differs from it in the CDRs of the heavy chain only.
VL: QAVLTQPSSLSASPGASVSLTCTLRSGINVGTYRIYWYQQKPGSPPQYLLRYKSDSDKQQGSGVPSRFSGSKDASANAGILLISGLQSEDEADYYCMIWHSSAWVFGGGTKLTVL
VH: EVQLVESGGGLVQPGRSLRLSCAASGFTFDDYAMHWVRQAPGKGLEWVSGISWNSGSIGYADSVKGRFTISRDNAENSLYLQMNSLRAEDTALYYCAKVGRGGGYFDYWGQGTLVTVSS

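AAYL51 was designed without a model: most single CDR substitutions and a random sample of double and triple ones. The scFvs were displayed on barcoded MATa yeast, the peptide on MATalpha yeast. The frequency of each diploid, read from paired DNA barcodes, reflects how well the two displayed proteins bind. Scores were corrected for input abundance and mapped to Kd with protein pairs of known affinity run in the same pool. The assay was run in three technical replicates.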

Substitutions are numbered in sequence along the VH above, starting at 1 (not Kabat). This list gathers variants with a substitution at S55 (VH, numbered from residue 1). Values are apparent Kd, the geometric mean of the replicates that gave a signal; lower means stronger binding. A pair that was not seen in any replicate is written "nd"; this usually means weak binding, but a binder can also be missed. Entries are sorted by rising average, undetected variants last. Background: pairings of library AAYL51 with three empty control strains gave a value in 21% of cases (median 34 µM, 5th percentile 1.8 µM). Values in that range, when seen in few replicates, are hard to tell from nonspecific mating. In this assay the parent's reference entry averaged 72 nM; its copy inside this library read 7.5 nM.

* S55G = 4.9 nM (3 of 3 replicates)
* D31H/W53Y/S55V = 7.8 nM (3 of 3 replicates)
* A33G/S55M/Y105C = 14 nM (3 of 3 replicates)
* M34Y/S55A = 25 nM (3 of 3 replicates)
* D30P/S55G/R101G = 37 nM (3 of 3 replicates)
* S55V/S57V/K65A = 610 nM (3 of 3 replicates)
* W53G/S55R/V64P = 720 nM (1 of 3 replicates)
* S55G/D62T/V64H = 890 nM (2 of 3 replicates)
* A33H/S55H/G103A = 1.8 µM (1 of 3 replicates)
* S55D = 1.9 µM (1 of 3 replicates)
* S55T/F106L = 3.1 µM (2 of 3 replicates)
* I51L/S55W/Y108S = 4.1 µM (1 of 3 replicates)
* F27L/S55Y/R101I = 5.1 µM (1 of 3 replicates)
* H35E/S55V/G102V = 5.1 µM (1 of 3 replicates)
* S55T/V64A/R101K = 5.7 µM (2 of 3 replicates)
* D30K/S55P/S63G = 7.7 µM (3 of 3 replicates)
* S55A/D62K/Y108I = 8.1 µM (3 of 3 replicates)
* G50D/S55R/V99R = 8.6 µM (1 of 3 replicates)
* S55D/R101Q = 9.0 µM (3 of 3 replicates)
* S55V = 11 µM (3 of 3 replicates)
* G26N/D30M/S55W = 12 µM (2 of 3 replicates)
* G26K/S55K/G102D = 19 µM (1 of 3 replicates)
* S55I/Y105S/D107E = 30 µM (2 of 3 replicates)
* T28A/S52F/S55C = 47 µM (1 of 3 replicates)
* G26E/S55M/D62G = 51 µM (1 of 3 replicates)
* M34E/S55R/D107H = 73 µM (1 of 3 replicates)
* G26M/F29G/S55P = 76 µM (1 of 3 replicates)
* D31S/S55T = 80 µM (1 of 3 replicates)
* F27M/D31M/S55N = 94 µM (3 of 3 replicates)
* S55F/Y60K/G100D = 110 µM (1 of 3 replicates)
* S55Y/R101Y/G102R = 170 µM (1 of 3 replicates)
* Y32Q/S55L/R101W = 200 µM (1 of 3 replicates)
* A33I/S55R/D62H = nd (0 of 3 replicates)
* S55M/G100C/D107K = nd (0 of 3 replicates)
* S55W/S63W/Y108T = nd (0 of 3 replicates)
* S55G/V99F = nd (0 of 3 replicates)
* G26S/M34V/S55L = nd (0 of 3 replicates)
* S55Q/A61Y/K65P = nd (0 of 3 replicates)
* G26E/S55N = nd (0 of 3 replicates)
* S55R/K65N/G100F = nd (0 of 3 replicates)
* F27C/M34I/S55W = nd (0 of 3 replicates)
* S55F/D62H/S63V = nd (0 of 3 replicates)
* F27H/T28K/S55H = nd (0 of 3 replicates)
* H35D/W53L/S55W = nd (0 of 3 replicates)
* S55H/K65P/Y108L = nd (0 of 3 replicates)
* G50N/S55W/F106R = nd (0 of 3 replicates)
* S55T/Y60M/D62R = nd (0 of 3 replicates)
* S55K/V99C/F106R = nd (0 of 3 replicates)
* Y32H/S55Y/G102L = nd (0 of 3 replicates)
* I51D/S55I/G100H = nd (0 of 3 replicates)
* S55M/G59D/G103S = nd (0 of 3 replicates)
* A33E/S55D/S57W = nd (0 of 3 replicates)

From the list, the first 5 with no signal in any replicate:

| changes | apparent Kd | detected |
|---|---|---|
| A33I/S55R/D62H | nd | 0 of 3 |
| S55M/G100C/D107K | nd | 0 of 3 |
| S55W/S63W/Y108T | nd | 0 of 3 |
| S55G/V99F | nd | 0 of 3 |
| G26S/M34V/S55L | nd | 0 of 3 |

Data: MIT Lincoln Laboratory AlphaSeq set, Engelhart et al. 2022, doi:10.1038/s41597-022-01779-4, as distributed in FLAb.